Test results as given in ChEMBL document CHEMBL4732061, “Synthesis, binding, and functional properties of tetrahydroisoquinolino-2-alkyl phenones as selective σR/TMEM97 ligands” (Eur J Med Chem, 2021).

Assay: Selectivity ratio of Ki for displacement of [3H](+)-pentazocine from sigma 1 receptor in guinea pig brain membranes to Ki for displacement of [125I]-RHM-4 from sigma2 receptor in rat liver membranes
Type: cell membranes

Row | SMILES | Ratio Ki
1 | COc1cc2c(cc1OC)CN(CCC(=O)c1c(C)c(OC)c(OC)c(OC)c1OC)CC2 | 3
2 | COc1cc2c(cc1OC)CN(CCCC(=O)c1c(C)c(OC)c(OC)c(OC)c1OC)CC2 | > 196
3 | COc1cc2c(cc1OC)CN(CCCCC(=O)c1c(C)c(OC)c(OC)c(OC)c1OC)CC2 | 53

Now from value to compound:

Row | Ratio Ki | SMILES
4 | > 751 | COc1cc2c(cc1OC)CN(CCCCCCC(=O)c1c(C)c(OC)c(OC)c(OC)c1OC)CC2
5 | > 2630 | COc1cc2c(cc1OC)CN(CCCCCC(=O)c1c(C)c(OC)c(OC)c(OC)c1OC)CC2
